# scFv variants of Ab-14 (light chain) against a SARS-CoV-2 spike peptide

The measurements come from Engelhart et al. 2022 (doi:10.1038/s41597-022-01779-4) through the FLAb antibody collection.

Target: peptide PDVDLGDISGINAS, taken from heptad repeat 2 (HR2) of SARS-CoV-2 spike.

The variants keep the heavy chain, the linker and the frameworks of Ab-14 (scFv order VH, the linker GGGGSGGGGSGGGGS, VL).
VH: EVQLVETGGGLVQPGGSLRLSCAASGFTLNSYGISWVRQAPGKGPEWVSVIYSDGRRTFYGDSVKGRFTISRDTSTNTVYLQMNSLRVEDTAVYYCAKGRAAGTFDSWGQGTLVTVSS
VL: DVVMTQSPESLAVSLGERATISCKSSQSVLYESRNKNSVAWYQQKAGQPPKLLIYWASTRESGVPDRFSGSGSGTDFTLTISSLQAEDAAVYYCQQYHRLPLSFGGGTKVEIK

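Phage display of a naive human antibody library on the peptide gave the parent. AAYL50 was designed without a model: most single CDR substitutions and a random sample of double and triple ones. The scFvs were displayed on barcoded MATa yeast, the peptide on MATalpha yeast. After mating in shaken culture at 30 °C for 16 h, diploids were selected and their barcode pairs sequenced. Read counts were normalised to the haploid input and turned into Kd by a linear fit to BCL2-family pairs of known affinity, for each replicate. Mating was done three times.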

Variants are written as CDR1, CDR2 and CDR3 of the light chain (limits as in the source). Parent: KSSQSVLYESRNKNSVA, WASTRES, QQYHRLPLS.
Values are log10 of the apparent Kd in nM; lower means stronger binding.
An entry "ND" has no value in the source: the pair was not observed among the diploids in that replicate. This suggests poor binding but is not conclusive.
For reference, the parent read 0.65 as the reference entry and 1.68 as a member of this library.
Empty control strains, which show no peptide, gave a signal in 18% of pairings with library AAYL50; the median was 4.19 and 95% of these signals were weaker than 2.99. No background was subtracted. Also given: how often the same scFv was detected with the empty control strains, with their mean in brackets.

CDR-L1 | CDR-L2 | CDR-L3 | log10 Kd, replicates | empty controls
KSSQSVLYDNRNKNSVA | WASTRES | QQYHRLPYS | ND / 3.42 / ND | 1/9 (4.06)
KSSQSWLYESRNKNSVA | WASTEHS | QQYHRLPLS | ND / ND / 4.43 | 0/9
KSSQWVLYESRNKNSVA | WASTRES | HYYHRLPLS | ND / ND / ND | 0/9
KSSQSVLYESRNKNSVA | WASTRQS | QCYHRLPLS | 0.99 / 1.40 / 1.17 | 4/9 (4.62)
KSSQSVLYESRNKNSEA | WQSTRES | GQYHRLPLS | ND / ND / 5.19 | 5/9 (4.88)
KSSQSVEYESPNKNSVA | WASTRPS | QQYHRLPLS | 0.74 / 1.05 / 0.91 | 1/9 (4.07)
KSSQSVLYWSRNKNSVA | WASTRSS | QQYHRLPLN | 3.13 / ND / ND | 1/9 (2.62)
KSSQSVLYESRNKSVVA | WASTRES | QQYHRTPLS | 5.88 / 5.03 / 3.65 | 3/9 (3.60)
RSSQSVLYESRNKNSVA | TASTMES | QQYHRLPLS | ND / ND / 3.69 | 1/9 (3.77)
KSMQSVLYESENKNSSA | WASTRES | QQYHRLPLS | ND / 4.27 / 5.28 | 7/9 (4.42)
KSSPSVLYESRNPNSVA | WASTRED | QQYHRLPLS | -0.11 / 0.37 / 0.07 | 1/9 (5.11)
KSSQSVLYESRNKNSVA | KASTRES | DQYHRLKLS | ND / ND / ND | 1/9 (4.59)
KRSQFVLYESRNKNSVA | WASTREF | QQYHRLPLS | 3.33 / 3.96 / ND | 2/9 (3.61)
KSSQSVLYESRNKNSVA | WWSTREK | QQYHTLPLS | 5.12 / ND / ND | 2/9 (3.87)
KSSQSVLYEGRNKNSVA | WASERES | EQYHRLPLS | 1.76 / 1.88 / 2.02 | 2/9 (3.69)
KSSPSVLYESRNKPSVV | WASTRES | QQYHRLPLS | ND / ND / ND | 6/9 (4.61)
KSSQSVLYESRNKNSVV | RASTRES | QQVHRLPLS | ND / ND / ND | 1/9 (3.93)
KSSQSVLPESINKNSVA | WASTRES | QQYHRLPLM | 1.00 / 1.26 / 1.51 | 3/9 (4.38)
KSSQSVMYESRNPNSVA | WASTRES | QQEHRLPLS | 0.74 / 0.78 / 0.52 | 3/9 (4.22)
KSSQSELYESRNKNSVA | WMSTRES | QQYHRLPLS | 1.30 / 1.61 / 1.46 | 3/9 (4.41)
KLSQSVLYESRNRNSVA | QASTRES | QQYHRLPLS | -0.30 / 0.01 / -0.23 | 5/9 (4.77)
KSSQSVLYESMNKNVVA | WARTRES | QQYHRLPLS | ND / 3.30 / ND | 2/9 (3.68)
KSSQSVLYESENKNSVA | WASTRES | QQYHDEPLS | ND / ND / 4.33 | 2/9 (3.84)
KSSQSVLYESRNKNSSS | NASTRES | QQYHRLPLS | ND / ND / ND | 1/9 (6.14)
KSSQSVLSESRNKNSVA | WASTRES | QQYHRLLLH | 1.18 / 1.30 / 1.27 | 1/9 (5.72)
KSSQSVLYESRVKNSVA | WASTRES | VQYHVLPLS | ND / ND / ND | 0/9
KSSQSYLYCSRNKNSVA | QASTRES | QQYHRLPLS | 0.49 / 0.69 / 0.62 | 0/9
KSSQSVLYSSRNKNSVA | WASGRES | QQYERLPLS | ND / 4.43 / 3.62 | 1/9 (3.93)
KSSQSVRYESRNKNSVL | WASTRES | QQYHRLDLS | ND / ND / ND | 1/9 (4.18)
NSSQSVLYESRNKNSPA | WASTRES | QQYHLLPLS | ND / ND / ND | 1/9 (3.05)
KSYRSVLYEPRNKNSVA | WASTRES | QQYHRLPLS | 3.30 / 2.33 / 3.07 | 3/9 (3.17)
KSSQSVLYESRNKNSVA | CATWRES | QQYHRLPLS | 2.23 / 2.42 / 2.30 | 5/9 (4.00)
KSWQSVLYESRNFNSVA | WMSTRES | QQYHRLPLS | ND / ND / 3.74 | 0/9
KSSQSVTMESRNKNSMA | WASTRES | QQYHRLPLS | 1.11 / 1.22 / 1.40 | 1/9 (4.68)
KSSFSVLYESRNKASVA | WASTRPS | QQYHRLPLS | 2.12 / 1.73 / 1.80 | 3/9 (4.67)
KSSQMVSYESRNKNSVA | WASTRES | QQYHRLPLV | ND / ND / ND | 0/9
KSSQSVLYESRNKNSVA | WASTDES | MQYHRLPKS | ND / ND / ND | 0/9
KSSISVLNESRNKNGVA | WASTRES | QQYHRLPLS | 1.38 / 1.35 / 1.11 | 5/9 (3.67)
KSSQSVLTESRNKNSVA | WMSTRES | QQYHRLPLH | 1.84 / 2.77 / 1.72 | 0/9
KSNQSVLYESRLKNSVA | FASTRES | QQYHRLPLS | 1.65 / 1.72 / 1.91 | 4/9 (4.26)
KDSQSVLYESRNKNSVA | WASTRES | QAYHNLPLS | 2.40 / 2.78 / 2.49 | 6/9 (4.00)
KSSQSVLVESRNFNSVA | WASTRES | QRYHRLPLS | 1.90 / 1.51 / 1.82 | 3/9 (4.26)

6 of these entries, quoted again:

CDR-L1 | CDR-L2 | CDR-L3 | log10 Kd, replicates | empty controls
KSSQSVLYESRNKNSSS | NASTRES | QQYHRLPLS | ND / ND / ND | 1/9 (6.14)
KSSQSVLYDNRNKNSVA | WASTRES | QQYHRLPYS | ND / 3.42 / ND | 1/9 (4.06)
KSSQSVLYESRNKNSEA | WQSTRES | GQYHRLPLS | ND / ND / 5.19 | 5/9 (4.88)
KSSQSVLYESRVKNSVA | WASTRES | VQYHVLPLS | ND / ND / ND | 0/9
KSSQSVLYESRNKNSVA | WWSTREK | QQYHTLPLS | 5.12 / ND / ND | 2/9 (3.87)
KSSQSVLYESRNKNSVA | CATWRES | QQYHRLPLS | 2.23 / 2.42 / 2.30 | 5/9 (4.00)